Laboratory results taken from PubChem BioAssay AID652105 (National Center for Advancing Translational Sciences (NCATS), 2013).
Only a part is listed here, and it is no random draw. Some results for these compounds are left out of this collection, so the calls shown say nothing about other tests. Activity calls are given as the source filed them. The calls were made as follows: active = max response of -50% or lower; inconclusive = between -30% and -50%; inactive = -30% or higher.

Sequences of proteins named here, by UniProt entry; tags and fusion partners are left off.
UniProt P48426, whole entry: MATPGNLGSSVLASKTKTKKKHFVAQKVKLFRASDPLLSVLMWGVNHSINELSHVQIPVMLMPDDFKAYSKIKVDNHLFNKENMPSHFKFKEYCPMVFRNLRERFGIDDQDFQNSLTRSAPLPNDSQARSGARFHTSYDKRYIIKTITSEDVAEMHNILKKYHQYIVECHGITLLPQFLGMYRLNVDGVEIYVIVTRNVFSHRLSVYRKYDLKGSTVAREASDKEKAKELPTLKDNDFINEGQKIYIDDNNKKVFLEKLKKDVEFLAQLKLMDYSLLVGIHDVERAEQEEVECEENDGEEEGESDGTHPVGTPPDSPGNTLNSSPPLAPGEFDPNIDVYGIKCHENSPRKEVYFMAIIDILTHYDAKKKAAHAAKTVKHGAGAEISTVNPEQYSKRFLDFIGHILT

Target: Phosphatidylinositol 5-phosphate 4-kinase type-2 alpha (Homo sapiens) (UniProt P48426)
Assay: qHTS for Inhibitors of phosphatidylinositol 5-phosphate 4-kinase (PI5P4K); also: value at the top dose of about 77 µM
Conditions: PI5P4Kalpha enzyme, ADP-Glo luminescence, 60 min; hits give low values
From the text: In addition to finding PI5P, we discovered the type II phosphatidylinositol 5-phosphate 4-kinase (PI5P4K) family (alpha, beta, gamma isoforms) that catalyze the conversion of PI5P to PI(4,5)P2. Alternatively, PI(4,5)P2 can also be synthesized through phosphatidylinositol-4-phosphate (PI4P) by the type I phosphatidylinositol 4-phosphate 5-kinases (PI4P5K). These PI5P4K enzymes therefore represent one way by which cells can regulate endogenous PI5P levels and play important roles in insulin signaling and in stress responses.
This proposal aims to identify and optimize specific modulators of human PI5P4K, phosphatidylinositol-5-phosphate 4-kinase (Type II PIPK), a family of kinases that regulate AKT signaling and tumor cell growth. In this project we aim to identify inhibitors of human PI5P4K using a quantitative high-throughput screening approach against the MLSMR containing ~400,000 small molecules.
NIH Chemical Genomics Center [NCGC]
NIH Molecular Libraries Probe Centers Network [MLPCN]
Assay Submitter (PI): Atsuo Sasaki, Beth Israel Deaconess Medical Center
2 microL of PI5P4Kalpha/substrate buffer (columns 1-2, 5-48) are dispensed into Greiner white solid bottom 1536-well assay plates; column 3 receives only PI5P4Kalpha buffer as 0x substrate controls; column 4 receives only substrate buffer as 0x PI5P4Kalpha controls. Final assay buffer consists of 0.038 M HEPES pH 7.4, 0.28 mM EGTA, 0.1% CHAPS, and 5% DMSO (final concentration). Compounds are then transferred via Kalypsys pin tool equipped with 1536-pin array (10 nL slotted pins, V&P Scientific, San Diego, CA). Following addition of compound, 1 microL of ATP (5 microM final concentration, all columns) is added to initiate the reaction. ATP is diluted in an assay buffer consisting of 0.02 M HEPES pH 7.4, 60 mM MgCl2, 15 microM ATP, and 0.1% CHAPS. The plates are then incubated at room temperature for 60 minutes. ADP-Glo reagent 1 is added (2 microL) and plates incubated for 45 minutes, before ADP-Glo reagent 2 (4 microL) is added and plates incubated for 30 minutes. They are then transferred to a ViewLux high-throughput CCD imager (PerkinElmer) wherein single end-point measurements of luminescence are acquired using a clear filter.
% is scaled to controls: 0 for no effect and ±100 for the full control effect.

SMILES	max response
Cc1ccccc1C(=O)NCC1(N2CCCCC2)CCCCC1	inactive: 1.11%
CN(C)c1ccc(C(=O)NCC2(N(C)C)CCCCC2)cc1	inactive: -7.98%
CN(C)C1CCCC1OC(=O)C(O)(c1ccccc1)c1ccccc1 (stereo unspecified)	inactive: -11.8%
C=CCN1CCN(CCOC(=O)C(O)(c2ccccc2)c2ccccc2)CC1	inactive: 1.3%
O=C(NCC1(N2CCCCC2)CCCCC1)c1cc(F)c(F)cc1Cl	inactive: 5.33%
COc1ccc(C(=O)NCC2(N(C)C)CCCCC2)cc1	inactive: 0.683%
CCN1CCCC(OC(=O)C2(O)c3ccccc3C=Cc3ccccc32)C1 (stereo unspecified)	inactive: 10.8%
Cc1cc(C(=O)NCC2(N3CCCCC3)CCCCC2)ccc1[N+](=O)[O-]	inactive: -0.162%
O=C(NCC1(N2CCCCC2)CCCCC1)c1cccc(Br)c1	inactive: -3.66%
O=C(NCC1(N2CCCCC2)CCCCC1)c1cc([N+](=O)[O-])ccc1Cl	inactive: -28.9%
CN1[C@@H]2CC[C@H]1CC(OC(=O)C(O)(c1ccccc1)c1ccccc1)C2 (stereo partly specified)	inactive: -6.8%
CCN(CC)CC(C)C(C)OC(=O)C(O)(c1ccccc1)c1ccccc1 (stereo unspecified)	inactive: -18%
COc1cc(SC)ccc1C(=O)NCC1(N(C)C)CCCCC1	inactive: -1.55%
CC(C)N1C(=O)CC2(CCN(CCOC(=O)C(O)(c3ccccc3)c3ccccc3)CC2)C1=O	inactive: 8.23%
Cc1ccc(C(=O)NCC2(N3CCCCC3)CCCCC2)cc1	inactive: -12.1%
O=C(OC1CN2CCC1CC2)C(CO)(c1ccccc1)c1ccccc1 (stereo unspecified)	inactive: -5.95%
C=C(C)C#CC(O)(C(=O)OC1CCN(C)CC1)c1ccccc1 (stereo unspecified)	inactive: -4.32%
COc1ccc(Br)c(C(=O)NCC2(N3CCCCC3)CCCCC2)c1	inactive: -3.75%
CC(C)Oc1ccc(C(=O)NCC2(N(C)C)CCCCC2)cc1	inactive: -5.74%
O=C(OCCN1CCCC1)C(O)(c1ccccc1)c1ccccc1	inactive: -0.485%
CN(C)c1cccc(C(=O)NCC2(N(C)C)CCCCC2)c1	inactive: -1.97%
CN(C)C1(CNC(=O)c2ccc(Br)cc2)CCCCC1	inactive: -1.34%
COc1cc(C(=O)NCC2(N(C)C)CCCCC2)c([N+](=O)[O-])cc1OC	inactive: -5.29%
COc1cccc(C(=O)NCC2(N3CCCCC3)CCCCC2)c1	inactive: 0.512%
COc1ccc(Cl)cc1C(=O)NCC1(N(C)C)CCCCC1	inactive: -0.733%
O=C(NCC1(N2CCCCC2)CCCCC1)c1cccc(Cl)c1	inactive: 1.76%
